Experimental data taken from patent US5622932A, “IGF-1 superagonists” (Eli Lilly and Company, priority 1995, dated 1997).

Biological target: T1, IGF-1 receptor (Homo sapiens, UniProt P08069)
T1 construct: 30-50 μg of human placental membrane protein was incubated; from tissue; host or cells: human placental membranes
Assay: IGF-1 radioreceptor assay (displacement of [125I] ligand from human placental membranes)
Format: binding
Experimental: 67:194-197. Briefly, 30-50 μg of human placental membrane protein was incubated with approximately 10 femtomoles of [^125 I] ligand in a final volume of 500 μl of 100 mM HEPES, pH 7.8, 120 mM NaCl, 5 mM KCl, 1.2 mM MgSO4, 8 mM glucose and 0.25% BSA for 24 hours at 4° C. Membranes were collected on glass fiber filters pre-treated with 0.1% polyethyleneimine by using a cell harvester (Skatron, Lier, Norway). Binding data were analyzed by fitting displacement curves to a four parameter model employing Prefit/Allfit® software for the determination of EC50 values.

- RATIO = IGF1 POTENCY ÷ INSULIN POTENCY (IGF-1 receptor vs insulin receptor selectivity): 83
- % IGF-1 POTENCY (relative to BCAD (IGF-1) = 100, human placental membrane, 24 hours at 4° C., from EC50 values): 100%
Substance: IGF-1 [BCAD (IGF-1)]
